From patent US20130184251A1, “HETEROAROMATIC AND AROMATIC PIPERAZINYL AZETIDINYL AMIDES AS MONOACYLGLYCEROL LIPASE INHIBITORS” (Janssen Pharmaceutica, NV, priority 2009, published 2013)

The chains behind the UniProt entries cited, without tags or fusion partners. Where a name states a change or a piece, a line headed by the entry shows the natural chain unless it says otherwise.
UniProt Q99685: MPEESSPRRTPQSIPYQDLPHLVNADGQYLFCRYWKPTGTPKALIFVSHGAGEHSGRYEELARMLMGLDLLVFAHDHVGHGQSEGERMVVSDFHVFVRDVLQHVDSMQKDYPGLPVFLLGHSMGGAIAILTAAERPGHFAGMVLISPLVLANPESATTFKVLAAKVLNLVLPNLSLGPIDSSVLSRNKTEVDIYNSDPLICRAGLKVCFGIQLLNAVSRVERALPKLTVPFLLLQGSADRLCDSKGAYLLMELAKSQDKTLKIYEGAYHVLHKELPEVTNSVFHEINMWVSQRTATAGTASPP

Experiments:
[1] = target: T1, purified mutant MGL (mut-MGLL 11-313 L179S L186S) (Homo sapiens, UniProt Q99685, L169S/L176S); assay: MGL enzyme activity assay (mutant MGL); details: read-out: Ex. 3 (mutant) IC50; mutant MGL (mut-MGLL 11-313 L179S L186S)
[2] = target: T1, purified mutant MGL (mut-MGLL 11-313 L179S L186S); assay: MGL ThermoFluor assay; details: read-out: Ex. 4 Kd

1-{1-[(1,5-Biphenyl-1H-pyrazol-3-yl)carbonyl]azetidin-3-yl}-4-pyridin-2-ylpiperazine
IC50 [1]: 0.749 µM | Kd [2]: 0.952 µM
